Experiments:
human recombinant BACE1 = human recombinant BACE1 (Homo sapiens (Human), UniProt P56817); assay: In vitro enzymatic BACE1 FRET assay; type: biochemical; conditions: read-out: IC50 IP (μM) BACE1 enzyme
human recombinant BACE2 = human recombinant BACE2 (Homo sapiens (Human), UniProt Q9Y5Z0); assay: In vitro enzymatic BACE2 FRET assay; type: biochemical; conditions: read-out: IC50 IP (μM) BACE2 enzyme
[1] = tested on: Aβ40 in conditioned medium of cells stably expressing Amyloid Precursor Protein (APP); assay: In vitro BACE-1 cell-based assay (Aβ40 sandwich ELISA); conditions: read-out: IC50 IP (μM) BACE1 cell
Recombinant Cat D = Recombinant Cat D (Homo sapiens (Human), UniProt P07339); assay: In vitro enzymatic Cathepsin D (Cat D) FRET assay; type: biochemical; conditions: read-out: IC50 IP (μM) CatD

Amino acid sequences for entries named in this document (tags omitted). Residues count along the entry.
UniProt P56817, 46-501 limits assumed: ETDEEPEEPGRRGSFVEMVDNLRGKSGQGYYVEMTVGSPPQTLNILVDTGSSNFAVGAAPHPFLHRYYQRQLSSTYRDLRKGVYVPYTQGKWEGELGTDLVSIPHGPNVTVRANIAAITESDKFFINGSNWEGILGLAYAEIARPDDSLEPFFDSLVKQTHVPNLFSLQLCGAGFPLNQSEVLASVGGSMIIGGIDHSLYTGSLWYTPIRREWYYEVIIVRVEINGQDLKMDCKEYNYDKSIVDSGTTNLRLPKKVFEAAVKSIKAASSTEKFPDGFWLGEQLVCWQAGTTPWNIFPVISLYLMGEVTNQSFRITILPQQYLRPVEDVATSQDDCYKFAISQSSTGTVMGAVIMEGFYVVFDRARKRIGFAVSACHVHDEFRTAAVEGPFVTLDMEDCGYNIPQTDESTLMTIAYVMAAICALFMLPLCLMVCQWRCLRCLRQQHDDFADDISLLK
UniProt Q9Y5Z0, 63-518 limits assumed: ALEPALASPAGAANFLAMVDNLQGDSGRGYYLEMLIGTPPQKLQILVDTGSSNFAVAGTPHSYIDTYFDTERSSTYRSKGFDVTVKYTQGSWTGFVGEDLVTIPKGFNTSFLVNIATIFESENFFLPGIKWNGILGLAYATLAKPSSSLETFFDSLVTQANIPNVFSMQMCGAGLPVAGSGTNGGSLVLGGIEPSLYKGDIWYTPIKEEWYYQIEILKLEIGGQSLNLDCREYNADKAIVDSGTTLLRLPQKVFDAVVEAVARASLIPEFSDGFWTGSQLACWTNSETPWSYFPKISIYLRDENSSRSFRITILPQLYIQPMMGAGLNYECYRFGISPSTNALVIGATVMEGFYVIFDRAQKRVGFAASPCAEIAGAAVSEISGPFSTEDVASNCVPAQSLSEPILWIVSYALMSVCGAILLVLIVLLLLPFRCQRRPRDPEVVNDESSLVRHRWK
UniProt P07339, 65-412 limits assumed: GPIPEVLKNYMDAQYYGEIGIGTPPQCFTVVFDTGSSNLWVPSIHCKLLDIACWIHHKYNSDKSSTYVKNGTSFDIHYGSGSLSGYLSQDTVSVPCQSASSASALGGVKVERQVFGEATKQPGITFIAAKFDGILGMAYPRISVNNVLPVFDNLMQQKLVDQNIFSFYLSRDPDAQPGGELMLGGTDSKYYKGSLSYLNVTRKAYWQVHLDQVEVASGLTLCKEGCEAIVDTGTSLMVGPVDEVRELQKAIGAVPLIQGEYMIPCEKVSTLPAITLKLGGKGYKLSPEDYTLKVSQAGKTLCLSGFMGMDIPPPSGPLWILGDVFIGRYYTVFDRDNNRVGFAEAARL

C#C[C@H](C)Oc1cnc2c(Nc3cc(F)c(F)c([C@@]4(C)N=C(N)S[C@@]5(C(F)F)C[C@@H]45)c3)nccc2n1
IC50 (human recombinant BACE1): 0.001 µM | IC50 (human recombinant BACE2): 0.2 µM | IC50 [1]: 0.0257 µM | IC50 (Recombinant Cat D): 517 µM
